In patent US20260382616A1, “TREATMENT METHODS FOR SUBJECTS WITH NON-SMALL CELL LUNG CANCER HAVING AN ABERRATION IN EGFR” (published 2026):

Assay: Phase 1/2a study, safety
[1] = 100 mg BID (N=39), regardless of grade

Structure (SMILES): C=CC(=O)N[C@H]1C=C(C)c2c(-c3cnc4ccccc4c3)c3c(N)ncnc3n2C1
- DLTs (30 mg dose level): 0/8
- DLTs (45 mg dose level): 0/1
- Treatment-related discontinuations (65 mg): two
- Dose reductions (65 mg BID): 2/13
- Pneumonitis possibly related (65 mg BID): one
- DLTs (65 mg dose level): 1/14
- Pneumonitis, grade (65 mg patient, previously had pneumonitis on osimertinib): grade 2
- Treatment-related discontinuations (100 mg): two
- Dose reductions (100 mg BID): 5/39
- Grade 3 or 4 ALT/AST increase (100 mg BID): two
- Pneumonitis possibly related (100 mg BID): two
- TEAE ≥Grade 3 ALT increased (100 mg BID (N=39)): 1 (2.6) No (%)
- TEAE ≥Grade 3 AST increased (100 mg BID (N=39)): 1 (2.6) No (%)
- TEAE ≥Grade 3 anemia (100 mg BID (N=39)): 1 (2.6) No (%)
- TEAE ≥Grade 3 diarrhea (100 mg BID (N=39)): 0 No (%)
- TEAE ≥Grade 3 disease progression (100 mg BID (N=39)): 1 (2.6) No (%)
- TEAE ≥Grade 3 dyspnea (100 mg BID (N=39)): 3 (7.7) No (%)
- TEAE ≥Grade 3 pneumonia (100 mg BID (N=39)): 3 (7.7) No (%)
- TRAE AST increased, number (100 mg BID (N=39), all grade): 3
- TRAE AST increased, percent (100 mg BID (N=39), all grade): (8) %
- TRAE alopecia, number (100 mg BID (N=39), all grade): 6
- TRAE alopecia, percent (100 mg BID (N=39), all grade): (15) %
- TRAE anemia, number (100 mg BID (N=39), all grade): 5
- TRAE anemia, percent (100 mg BID (N=39), all grade): (13) %
- TRAE decreased appetite, number (100 mg BID (N=39), all grade): 4
- TRAE decreased appetite, percent (100 mg BID (N=39), all grade): (10) %
- TRAE diarrhea, number (100 mg BID (N=39), all grade): 14
- TRAE diarrhea, percent (100 mg BID (N=39), all grade): (36) %
- TRAE dry eye, number (100 mg BID (N=39), all grade): 7
- TRAE dry eye, percent (100 mg BID (N=39), all grade): (18) %
- TRAE dry skin, number (100 mg BID (N=39), all grade): 7
- TRAE dry skin, percent (100 mg BID (N=39), all grade): (18) %
- TRAE fatigue, number (100 mg BID (N=39), all grade): 8
- TRAE fatigue, percent (100 mg BID (N=39), all grade): (21) %
- TRAE nausea, number (100 mg BID (N=39), all grade): 4
- TRAE nausea, percent (100 mg BID (N=39), all grade): (10) %
- TRAE paronychia, number (100 mg BID (N=39), all grade): 12
- TRAE paronychia, percent (100 mg BID (N=39), all grade): (31) %
- TRAE rash, number (100 mg BID (N=39), all grade): 32
- TRAE rash, percent (100 mg BID (N=39), all grade): (82) %
- TRAE stomatitis, number (100 mg BID (N=39), all grade): 5
- TRAE stomatitis, percent (100 mg BID (N=39), all grade): (13) %
- TRAE AST increased, number (100 mg BID (N=39), grade ≥3): 1
- TRAE AST increased, percent (100 mg BID (N=39), grade ≥3): (2.6) %
- TRAE alopecia, number (100 mg BID (N=39), grade ≥3): 0
- TRAE anemia, number (100 mg BID (N=39), grade ≥3): 1
- TRAE anemia, percent (100 mg BID (N=39), grade ≥3): (2.6) %
- TRAE decreased appetite, number (100 mg BID (N=39), grade ≥3): 0
- TRAE diarrhea, number (100 mg BID (N=39), grade ≥3): 0
- TRAE dry eye, number (100 mg BID (N=39), grade ≥3): 0
- TRAE dry skin, number (100 mg BID (N=39), grade ≥3): 0
- TRAE fatigue, number (100 mg BID (N=39), grade ≥3): 0
- TRAE nausea, number (100 mg BID (N=39), grade ≥3): 0
- TRAE paronychia, number (100 mg BID (N=39), grade ≥3): 0
- TRAE rash, number (100 mg BID (N=39), grade ≥3): 0
- TRAE stomatitis, number (100 mg BID (N=39), grade ≥3): 0
- TEAE ALT increased, number (percent) [1]: 4 (10.3)
- TEAE AST increased, number (percent) [1]: 5 (12.8)
- TEAE alopecia, number (percent) [1]: 9 (23.1)
- TEAE anemia, number (percent) [1]: 8 (20.5)
- TEAE arthralgia, number (percent) [1]: 5 (12.8)
- TEAE constipation, number (percent) [1]: 9 (23.1)
- TEAE cough, number (percent) [1]: 10 (25.6)
- TEAE decreased appetite, number (percent) [1]: 11 (28.2)
- TEAE diarrhea, number (percent) [1]: 18 (46.2)
- TEAE dizziness, number (percent) [1]: 6 (15.4)
- TEAE dry eye, number (percent) [1]: 7 (17.9)
- TEAE dry skin, number (percent) [1]: 8 (20.5)
- TEAE dyspnea, number (percent) [1]: 13 (33.3)
- TEAE edema peripheral, number (percent) [1]: 4 (10.3)
- TEAE fatigue, number (percent) [1]: 15 (38.5)
- TEAE headache, number (percent) [1]: 7 (17.9)
- TEAE insomnia, number (percent) [1]: 5 (12.8)
- TEAE nausea, number (percent) [1]: 10 (25.6)
- TEAE paronychia, number (percent) [1]: 13 (33.3)
- TEAE pyrexia, number (percent) [1]: 7 (17.9)
- TEAE rash, number (percent) [1]: 33 (84.6)
- TEAE stomatitis, number (percent) [1]: 5 (12.8)
- TEAE vomiting, number (percent) [1]: 9 (23.1)
- Grade ≥3 diarrhea or rash (100 mg BID or lower): No patients
